{"source": "patent US6358953B1", "about": "“Pterin antineoplastic agents” (priority 1998, dated 2002)", "experiment": "Observed toxicity in C3H/HeN-MTV+ mice at therapeutic dosages", "assay_type": "in vivo", "details": "consumed by the experimental mice at therapeutic dosages", "description": "The A-line at 42% represents the level of activity established by the N.C.I. for “significant antitumor activity”. The B-line at about 10% depicts the level representing a “high degree of antitumor activity”.", "data": [{"substance": "CaCl2(pterin)4", "values": [{"measurement": "toxicity", "value": "no observed toxicity"}]}]}
